Data: patent publication US20110117588A1, “METHOD OF PREDICTING DRUG-INDUCED PHOSPHOLIPIDOSIS” (KYUSHU UNIVERSITY, NATIONAL UNIVERSITY CORPORATION, priority 2007, published 2011)

Experiments:
NRK cells [1] = assay: Localization of MPR in NRK cells by confocal laser microscope with antibody; settings: 24 hr exposure, result in words
NRK cells [2] = assay: β-hexosaminidase activity in the medium after exposure of NRK cells; settings: 24 hr exposure, result in words

- alteration of MPR localization (NRK cells [1]): none
- β-hex activity increase (NRK cells [2]): none
Substance: gentamicin
